We go through three compounds from PMC6099588.

The subject of test [1] is MLV particles. Nature of the test: Western blot of MLV capsid in concentrated HCVpp. To be noted: Western blot with anti-capsid MLV antibody, versus HCVpp produced without inhibitors. (Immunoblotting shows a protein as a band on a membrane.)
Test [2] relates to HCV E2 glycoprotein. Nature of the test: Western blot of E2 glycoprotein accumulation in transfected HEK293T cells. Particulars: anti-E2 MAb AP33, 48 h post transfection.
Test [3] has as its system HCV E2 glycoprotein. Nature of the test: Western blot of E2 glycoprotein incorporated into concentrated HCVpp. To be noted: Western blot of 100× concentrated HCVpp.

Consider `CC(=O)N[C@H]1[C@@H](O[C@@H]2O[C@H](C[C@@H](O)[C@H]3O[C@@H](n4ccc(=O)[nH]c4=O)[C@H](O)[C@@H]3O)[C@H](O)[C@H](O)[C@H]2NC(=O)/C=C/CCCCCCCCCC(C)C)O[C@H](CO)[C@@H](O)[C@@H]1O` [Tunicamycin, reference compound], for which the “amount of MLV particles” value in test [1] is “no changes in the amount of MLV particles”. Also, in test [2], the “accumulation of E2 glycoprotein in HEK293T cells” value is reported as “significant disruption in the accumulation of E2 glycoprotein”. The “amount of E2 glycoprotein incorporated into HCVpp” value in test [3] is reported as “significant reduction in the amount of E2 glycoprotein incorporated into HCVpp”.
`CC(=O)O[C@H]1[C@H](C)O[C@H](OC[C@H]2O[C@@H](n3ccc(=O)n(C(=O)c4ccccc4)c3=O)[C@@H]3OC(C)(C)O[C@@H]32)C[C@@H]1O[Si](C)(C)C(C)(C)C` [Compound 2]: in test [1], the “amount of MLV particles” value was “no changes in the amount of MLV particles”. In addition, the “amount of E2 glycoprotein incorporated into HCVpp” value in test [3] is “no reduction in the amount of the protein”.
The like results for `CC1(C)O[C@@H]2[C@H](O1)[C@@H](CO[C@@H]1C[C@@H](OCc3ccccc3)[C@H](OCc3ccccc3)[C@@H](COCc3ccccc3)O1)O[C@H]2n1ccc(=O)n(C(=O)c2ccccc2)c1=O` [Compound 4] were, in that order, “no changes in the amount of MLV particles” and “no reduction in the amount of the protein”.
